# AlphaSeq binding of Ab-14 light chain variants to a spike HR2 peptide

Target peptide (SARS-CoV-2 spike, HR2 region): PDVDLGDISGINAS

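Phage display of a naive human antibody library on the peptide gave the parent. Library AAYL50 holds single substitutions and randomly drawn double and triple substitutions in the CDRs. The assay is AlphaSeq: two haploid yeast populations carry antibody and antigen on their surface. Mating (16 h, 30 °C) was followed by selection of diploids and sequencing of their barcodes. A regression on co-assayed BCL2-family reference pairs converts the normalised counts of each replicate to an apparent Kd. The assay was run in three technical replicates.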

Each scFv is VH, a 15-residue (Gly4Ser)3 linker, VL, as in the parent Ab-14, and differs from it in the CDRs of the light chain only.
VH: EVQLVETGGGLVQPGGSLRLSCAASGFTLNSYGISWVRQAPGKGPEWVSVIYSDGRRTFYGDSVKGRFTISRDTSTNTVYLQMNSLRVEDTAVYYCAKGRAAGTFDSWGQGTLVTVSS
VL: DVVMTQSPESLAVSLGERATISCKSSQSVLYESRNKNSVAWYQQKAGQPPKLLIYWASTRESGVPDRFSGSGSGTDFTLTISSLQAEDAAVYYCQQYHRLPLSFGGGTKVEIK

Variants are written as CDR1, CDR2 and CDR3 of the light chain (limits as in the source). Parent: KSSQSVLYESRNKNSVA, WASTRES, QQYHRLPLS. This list gathers variants with a substitution at R34 (VL, numbered from residue 1). Each Kd is an estimate from the mating assay, the geometric mean of the replicates in which the pair was seen; lower is stronger. "not detected" marks a missing value. The strain was present, yet no cells mated with the target were sequenced in any replicate, which points to weak or no binding. Nonspecific signal, from three strains lacking the peptide, appeared in 18% of pairings of library AAYL50, centred on 15 µM (5% of these signals below 970 nM); values are not corrected for it.

| CDR-L1 | CDR-L2 | CDR-L3 | apparent Kd | detected |
|---|---|---|---|---|
| KSSQSVLYESHNKNSVA | WFSTRES | QQYNRLPLS | 950 nM | 1 of 3 |
| KSSQSVLYESPNKNSVA | WASTRSS | QQYHRLMLS | 270 µM | 1 of 3 |
| KSQQSVLYESFSKNSVA | WASTRES | QQYHRLPLS | 7.4 nM | 3 of 3 |
| KSSWSVLYESFNKNSVA | WASTREL | QQYHRLPLS | 11 nM | 3 of 3 |
| KSSQSVLYESMNKNSVA | WAKTLES | QQYHRLPLS | not detected | 0 of 3 |
| KSSQSVLYESNNKNSVQ | WASTRES | QQYHRLPLS | not detected | 0 of 3 |
| KSSQSVLYQSCNKNSVF | WASTRES | QQYHRLPLS | 33 µM | 2 of 3 |
| KSSQSVLYESHNKNSVA | WASTRES | QAGHRLPLS | 4.4 nM | 3 of 3 |
| KSSQSVLWESQNKNSVA | WASTRES | QQYHRLNLS | not detected | 0 of 3 |
| KSNQSVPYESSNKNSVA | WASTRES | QQYHRLPLS | 8.3 nM | 3 of 3 |
| KSSQSVLYESACKNSVA | WASTRES | QDYHRLPLS | 20 nM | 3 of 3 |
| KSSQDVLIESPNKNSVA | WASTRES | QQYHRLPLS | 64 nM | 3 of 3 |
| KSSQSVLYEQQNKNSVA | WASTRES | QQYHRLPQS | not detected | 0 of 3 |
| KSSQSVLYESCNKNSVA | WASTRAS | WQYHRLPLS | 13 µM | 3 of 3 |
| KFSQSVLYESWNKNSVA | WASTRES | QQLHRLPLS | 25 nM | 3 of 3 |
| KSSQSVLYESSNKNSVA | WAKTRES | QQYHRLPLS | 14 µM | 3 of 3 |
| KSSQSVLYESYNKWSVA | WASTRES | QQYWRLPLS | 5.5 µM | 1 of 3 |
| KHSQSVLYESYNKNSVA | WASTRES | QQYHWLPLS | 36 µM | 3 of 3 |
| KSSQSVLYESKNKNSVA | WASTRES | QQYHRLRLS | 6.3 nM | 3 of 3 |
| KSSQSVLYESPNKNSVA | WMSTRES | QQYHRSPLS | 39 µM | 1 of 3 |
| KSSQSVLYESFNKNSVA | WASTRES | QQWHTLPLS | not detected | 0 of 3 |
| KSSQSVLYESMNKNSVA | WAPERES | QQYHRLPLS | not detected | 0 of 3 |
| KSSQSVLYEYVNKNSVA | WASTRES | QQYHRLPLS | 17 nM | 3 of 3 |
| KSSQSVLYESINKNSVA | TASTRES | QQYHRLPLS | 11 nM | 3 of 3 |
| KKSQSVLYESINKNSVA | PASTRES | QQYHRLPLS | not detected | 0 of 3 |
| KSSQSVLYESCNKNSVA | WASTRES | CQYHRLPLS | 1.8 µM | 3 of 3 |
| KSSQSVLYESKNKNSVA | FASTRES | QQYHFLPLS | 1.9 µM | 3 of 3 |
| KSSQIVLYESENKNSVA | WASTRES | QQYNRLPLS | 8.1 nM | 3 of 3 |
| KSWQSVLYESHNTNSVA | WASTRES | QQYHRLPLS | 90 nM | 3 of 3 |
| KSSQSVLYESCVKNSVA | WCSTRES | QQYHRLPLS | not detected | 0 of 3 |
| KSSQSVLYNSQNKNSVA | WASTRES | QQYHRLGLS | 6.6 nM | 3 of 3 |
| KSSQSVLYESLNKNSVA | WCSTRES | AQYHRLPLS | not detected | 0 of 3 |
| KSSQSVLYESQMKNSVA | WASTRSS | QQYHRLPLS | 5.9 nM | 3 of 3 |
| KSSQSVLYESENKNSVA | WASTRES | QQYHVLPLS | 2.6 nM | 3 of 3 |
| KSSQSVLYESYNKNSVA | WASTRES | QQYHRAPLS | 94 µM | 1 of 3 |
| KSSQSVLYESCNKNSVA | TASTRES | QQYHYLPLS | 96 nM | 3 of 3 |
| KSSQSVLYESWNPNSVA | WASTRES | QQYHRLPTS | not detected | 0 of 3 |
| KSSQSVYYESDNGNSVA | WASTRES | QQYHRLPLS | 6.6 nM | 3 of 3 |
| KSSQSVLYESGNKNSVA | WASTREE | RQYHRLPLS | not detected | 0 of 3 |
| KSSQEVLYESDNKNSVA | WASTRES | QQYVRLPLS | 6.7 nM | 3 of 3 |
| KSSQNVLYTSFNKNSVA | WASTRES | QQYHRLPLS | 5.2 nM | 3 of 3 |
| KKSQSVLYESENKNSVA | WASTRES | QQNHRLPLS | 73 nM | 3 of 3 |
| KSSQSVLYESVFKNSAA | WASTRES | QQYHRLPLS | not detected | 0 of 3 |
| KSSQSDLYESHNKNSVA | WASTRES | QQYHRLPLS | 5.6 nM | 3 of 3 |
| KSSQSVLYESNTKNSVA | WASTRES | QQFHRLPLS | 25 nM | 3 of 3 |

A selection of 6 entries from above:

{"CDR-L1": "KSSQSDLYESHNKNSVA", "CDR-L2": "WASTRES", "CDR-L3": "QQYHRLPLS", "apparent Kd": "5.6 nM", "detected": "3 of 3"}
{"CDR-L1": "KSSQSVLYNSQNKNSVA", "CDR-L2": "WASTRES", "CDR-L3": "QQYHRLGLS", "apparent Kd": "6.6 nM", "detected": "3 of 3"}
{"CDR-L1": "KHSQSVLYESYNKNSVA", "CDR-L2": "WASTRES", "CDR-L3": "QQYHWLPLS", "apparent Kd": "36 µM", "detected": "3 of 3"}
{"CDR-L1": "KSSQSVLYESSNKNSVA", "CDR-L2": "WAKTRES", "CDR-L3": "QQYHRLPLS", "apparent Kd": "14 µM", "detected": "3 of 3"}
{"CDR-L1": "KSSQSVLYQSCNKNSVF", "CDR-L2": "WASTRES", "CDR-L3": "QQYHRLPLS", "apparent Kd": "33 µM", "detected": "2 of 3"}
{"CDR-L1": "KKSQSVLYESENKNSVA", "CDR-L2": "WASTRES", "CDR-L3": "QQNHRLPLS", "apparent Kd": "73 nM", "detected": "3 of 3"}

From the AlphaSeq antibody data of Engelhart et al. 2022 (doi:10.1038/s41597-022-01779-4), copy in the FLAb collection.